Results taken from ChEMBL document CHEMBL3526069, “Human pharmacokinetic prediction of UDP-glucuronosyltransferase substrates with an animal scale-up approach” (Drug Metab Dispos, 2011).

Test: in vitro
Settings: rhesus monkey, plasma

fraction unbound: 0.707
Compound: Cc1cn([C@H]2C[C@H](N=[N+]=[N-])[C@@H](CO)O2)c(=O)[nH]c1=O [ZIDOVUDINE]
